# Experimental data reported in US20260384450A1, “MACROCYCLIC AMINOPYRIDINE COMPOUNDS AS EGFR INHIBITORS” (published 2026).
# The chains behind the UniProt entries cited, without tags or fusion partners. Where a name states a change or a piece, a line headed by the entry shows the natural chain unless it says otherwise. A line that says so, or that is headed by a name, gives the form on record, which may keep a tag or linker. Residues count along the entry.
# UniProt P00533, 25-1210 limits assumed: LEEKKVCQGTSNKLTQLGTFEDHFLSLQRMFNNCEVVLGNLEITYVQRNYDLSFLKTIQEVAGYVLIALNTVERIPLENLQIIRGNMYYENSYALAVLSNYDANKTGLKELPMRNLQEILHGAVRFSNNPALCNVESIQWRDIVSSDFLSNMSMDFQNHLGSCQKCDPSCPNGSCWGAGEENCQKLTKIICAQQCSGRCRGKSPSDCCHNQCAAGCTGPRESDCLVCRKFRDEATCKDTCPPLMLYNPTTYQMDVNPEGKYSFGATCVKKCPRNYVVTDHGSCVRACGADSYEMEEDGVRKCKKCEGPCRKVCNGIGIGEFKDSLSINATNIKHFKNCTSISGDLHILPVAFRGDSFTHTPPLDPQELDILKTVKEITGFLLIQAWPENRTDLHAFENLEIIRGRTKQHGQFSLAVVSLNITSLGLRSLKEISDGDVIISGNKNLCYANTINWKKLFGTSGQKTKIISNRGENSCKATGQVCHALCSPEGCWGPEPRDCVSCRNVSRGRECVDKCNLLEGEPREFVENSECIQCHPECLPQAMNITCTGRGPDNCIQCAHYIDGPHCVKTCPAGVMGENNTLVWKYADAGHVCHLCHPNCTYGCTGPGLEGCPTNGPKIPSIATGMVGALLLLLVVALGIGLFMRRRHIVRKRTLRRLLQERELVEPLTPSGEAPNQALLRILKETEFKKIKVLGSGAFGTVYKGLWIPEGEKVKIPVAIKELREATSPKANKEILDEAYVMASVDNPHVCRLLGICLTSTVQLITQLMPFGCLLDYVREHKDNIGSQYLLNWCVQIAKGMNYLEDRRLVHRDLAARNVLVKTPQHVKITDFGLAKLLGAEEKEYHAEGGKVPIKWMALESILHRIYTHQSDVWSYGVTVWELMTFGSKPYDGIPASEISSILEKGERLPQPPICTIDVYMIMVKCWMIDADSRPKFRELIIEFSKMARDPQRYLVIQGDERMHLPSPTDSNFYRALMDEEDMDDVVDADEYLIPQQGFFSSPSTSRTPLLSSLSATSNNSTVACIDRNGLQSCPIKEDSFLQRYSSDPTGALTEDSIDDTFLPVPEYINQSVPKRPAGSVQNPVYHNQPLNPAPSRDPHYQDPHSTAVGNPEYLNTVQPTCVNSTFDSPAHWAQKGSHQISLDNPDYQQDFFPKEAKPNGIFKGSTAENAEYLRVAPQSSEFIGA
# UniProt P00533, 25-1210 C797S/L858R limits assumed: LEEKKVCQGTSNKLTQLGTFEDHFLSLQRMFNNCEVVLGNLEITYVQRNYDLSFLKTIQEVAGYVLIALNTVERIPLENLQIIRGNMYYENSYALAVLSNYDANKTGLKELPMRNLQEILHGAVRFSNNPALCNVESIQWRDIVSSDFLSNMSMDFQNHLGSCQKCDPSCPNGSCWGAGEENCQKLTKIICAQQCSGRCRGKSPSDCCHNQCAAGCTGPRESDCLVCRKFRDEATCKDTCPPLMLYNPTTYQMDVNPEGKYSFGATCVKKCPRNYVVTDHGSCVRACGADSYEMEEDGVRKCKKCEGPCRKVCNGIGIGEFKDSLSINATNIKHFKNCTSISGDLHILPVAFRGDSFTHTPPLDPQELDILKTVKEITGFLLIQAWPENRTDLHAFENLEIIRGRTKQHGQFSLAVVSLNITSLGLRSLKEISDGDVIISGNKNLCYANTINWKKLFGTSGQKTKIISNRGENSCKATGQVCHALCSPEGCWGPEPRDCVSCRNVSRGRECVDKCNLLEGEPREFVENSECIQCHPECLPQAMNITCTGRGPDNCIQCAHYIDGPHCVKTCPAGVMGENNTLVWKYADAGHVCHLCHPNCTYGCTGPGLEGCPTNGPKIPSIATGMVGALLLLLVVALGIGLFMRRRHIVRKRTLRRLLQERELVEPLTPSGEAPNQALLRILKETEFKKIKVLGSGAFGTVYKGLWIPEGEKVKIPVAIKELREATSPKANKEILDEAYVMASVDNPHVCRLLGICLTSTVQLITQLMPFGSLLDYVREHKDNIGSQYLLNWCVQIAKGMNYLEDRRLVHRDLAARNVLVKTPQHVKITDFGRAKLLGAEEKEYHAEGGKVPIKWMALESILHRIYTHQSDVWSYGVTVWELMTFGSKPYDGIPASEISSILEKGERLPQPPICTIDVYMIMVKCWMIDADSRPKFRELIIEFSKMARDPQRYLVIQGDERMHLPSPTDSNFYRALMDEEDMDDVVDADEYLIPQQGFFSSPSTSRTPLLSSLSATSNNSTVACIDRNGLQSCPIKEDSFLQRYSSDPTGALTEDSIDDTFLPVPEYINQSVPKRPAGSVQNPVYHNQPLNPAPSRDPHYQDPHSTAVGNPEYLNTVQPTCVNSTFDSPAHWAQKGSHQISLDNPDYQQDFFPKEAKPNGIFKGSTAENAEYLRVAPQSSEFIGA
# UniProt P00533, 25-1210 T790M/C797S/L858R limits assumed: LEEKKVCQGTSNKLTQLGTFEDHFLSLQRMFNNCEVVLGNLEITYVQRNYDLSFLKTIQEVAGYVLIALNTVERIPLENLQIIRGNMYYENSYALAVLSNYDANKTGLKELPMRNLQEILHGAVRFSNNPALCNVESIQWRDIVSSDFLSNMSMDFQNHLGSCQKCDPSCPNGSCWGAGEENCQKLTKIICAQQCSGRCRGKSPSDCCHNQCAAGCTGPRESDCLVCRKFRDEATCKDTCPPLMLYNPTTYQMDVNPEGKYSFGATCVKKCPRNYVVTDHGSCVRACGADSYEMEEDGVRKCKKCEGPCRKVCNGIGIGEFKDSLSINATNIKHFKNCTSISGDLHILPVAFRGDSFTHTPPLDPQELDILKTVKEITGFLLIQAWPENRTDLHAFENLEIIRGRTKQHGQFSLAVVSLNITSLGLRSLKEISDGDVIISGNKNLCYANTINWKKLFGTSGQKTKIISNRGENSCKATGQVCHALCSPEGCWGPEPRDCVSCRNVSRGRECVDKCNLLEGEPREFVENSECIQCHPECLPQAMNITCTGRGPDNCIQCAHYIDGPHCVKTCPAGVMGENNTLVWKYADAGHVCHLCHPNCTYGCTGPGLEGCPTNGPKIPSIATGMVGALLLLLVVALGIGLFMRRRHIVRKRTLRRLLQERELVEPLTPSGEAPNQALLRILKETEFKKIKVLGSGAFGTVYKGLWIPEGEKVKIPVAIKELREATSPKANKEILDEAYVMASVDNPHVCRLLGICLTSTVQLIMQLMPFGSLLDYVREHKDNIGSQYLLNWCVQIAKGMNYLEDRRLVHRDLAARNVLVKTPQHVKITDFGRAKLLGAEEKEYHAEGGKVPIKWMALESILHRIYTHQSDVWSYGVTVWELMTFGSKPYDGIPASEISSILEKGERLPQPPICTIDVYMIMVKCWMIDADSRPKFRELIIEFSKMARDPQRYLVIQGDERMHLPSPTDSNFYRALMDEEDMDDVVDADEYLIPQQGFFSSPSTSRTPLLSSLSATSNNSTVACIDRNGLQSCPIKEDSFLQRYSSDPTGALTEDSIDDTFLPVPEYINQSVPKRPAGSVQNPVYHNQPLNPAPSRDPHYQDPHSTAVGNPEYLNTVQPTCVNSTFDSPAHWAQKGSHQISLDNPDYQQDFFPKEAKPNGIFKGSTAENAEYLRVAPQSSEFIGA
# UniProt P00533, with tags, fused parts or gaps DEL746-750/C797S limits assumed: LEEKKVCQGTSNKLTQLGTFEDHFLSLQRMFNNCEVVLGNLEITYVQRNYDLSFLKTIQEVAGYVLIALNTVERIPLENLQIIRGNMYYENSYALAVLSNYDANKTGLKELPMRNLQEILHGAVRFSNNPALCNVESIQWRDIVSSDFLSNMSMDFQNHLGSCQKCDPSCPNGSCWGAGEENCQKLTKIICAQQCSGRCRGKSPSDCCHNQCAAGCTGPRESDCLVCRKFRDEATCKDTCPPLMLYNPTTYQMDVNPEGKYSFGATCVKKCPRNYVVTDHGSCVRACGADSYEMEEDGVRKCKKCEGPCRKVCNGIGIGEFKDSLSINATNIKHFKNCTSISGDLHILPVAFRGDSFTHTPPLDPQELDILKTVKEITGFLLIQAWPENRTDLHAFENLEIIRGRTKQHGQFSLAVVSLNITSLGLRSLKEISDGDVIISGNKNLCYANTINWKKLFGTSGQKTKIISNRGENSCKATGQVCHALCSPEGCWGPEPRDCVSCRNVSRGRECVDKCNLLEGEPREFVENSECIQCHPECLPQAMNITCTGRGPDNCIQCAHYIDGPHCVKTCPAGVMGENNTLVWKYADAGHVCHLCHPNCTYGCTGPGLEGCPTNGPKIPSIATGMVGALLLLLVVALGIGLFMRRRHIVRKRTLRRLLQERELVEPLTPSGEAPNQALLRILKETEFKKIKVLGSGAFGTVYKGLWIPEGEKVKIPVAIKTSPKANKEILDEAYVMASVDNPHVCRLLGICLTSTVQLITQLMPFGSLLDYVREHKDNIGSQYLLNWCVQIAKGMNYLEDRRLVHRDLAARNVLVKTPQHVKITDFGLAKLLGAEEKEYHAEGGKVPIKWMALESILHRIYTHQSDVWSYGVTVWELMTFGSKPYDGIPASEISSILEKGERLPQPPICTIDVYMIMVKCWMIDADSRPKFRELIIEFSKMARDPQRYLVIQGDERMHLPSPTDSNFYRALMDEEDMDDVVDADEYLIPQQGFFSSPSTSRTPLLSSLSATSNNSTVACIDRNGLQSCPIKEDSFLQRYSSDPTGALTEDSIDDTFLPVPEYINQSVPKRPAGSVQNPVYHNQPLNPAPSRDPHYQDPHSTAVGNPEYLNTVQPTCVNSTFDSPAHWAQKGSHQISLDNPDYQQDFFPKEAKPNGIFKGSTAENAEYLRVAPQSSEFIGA
# UniProt P00533, with tags, fused parts or gaps DEL746-750/T790M/C797S limits assumed: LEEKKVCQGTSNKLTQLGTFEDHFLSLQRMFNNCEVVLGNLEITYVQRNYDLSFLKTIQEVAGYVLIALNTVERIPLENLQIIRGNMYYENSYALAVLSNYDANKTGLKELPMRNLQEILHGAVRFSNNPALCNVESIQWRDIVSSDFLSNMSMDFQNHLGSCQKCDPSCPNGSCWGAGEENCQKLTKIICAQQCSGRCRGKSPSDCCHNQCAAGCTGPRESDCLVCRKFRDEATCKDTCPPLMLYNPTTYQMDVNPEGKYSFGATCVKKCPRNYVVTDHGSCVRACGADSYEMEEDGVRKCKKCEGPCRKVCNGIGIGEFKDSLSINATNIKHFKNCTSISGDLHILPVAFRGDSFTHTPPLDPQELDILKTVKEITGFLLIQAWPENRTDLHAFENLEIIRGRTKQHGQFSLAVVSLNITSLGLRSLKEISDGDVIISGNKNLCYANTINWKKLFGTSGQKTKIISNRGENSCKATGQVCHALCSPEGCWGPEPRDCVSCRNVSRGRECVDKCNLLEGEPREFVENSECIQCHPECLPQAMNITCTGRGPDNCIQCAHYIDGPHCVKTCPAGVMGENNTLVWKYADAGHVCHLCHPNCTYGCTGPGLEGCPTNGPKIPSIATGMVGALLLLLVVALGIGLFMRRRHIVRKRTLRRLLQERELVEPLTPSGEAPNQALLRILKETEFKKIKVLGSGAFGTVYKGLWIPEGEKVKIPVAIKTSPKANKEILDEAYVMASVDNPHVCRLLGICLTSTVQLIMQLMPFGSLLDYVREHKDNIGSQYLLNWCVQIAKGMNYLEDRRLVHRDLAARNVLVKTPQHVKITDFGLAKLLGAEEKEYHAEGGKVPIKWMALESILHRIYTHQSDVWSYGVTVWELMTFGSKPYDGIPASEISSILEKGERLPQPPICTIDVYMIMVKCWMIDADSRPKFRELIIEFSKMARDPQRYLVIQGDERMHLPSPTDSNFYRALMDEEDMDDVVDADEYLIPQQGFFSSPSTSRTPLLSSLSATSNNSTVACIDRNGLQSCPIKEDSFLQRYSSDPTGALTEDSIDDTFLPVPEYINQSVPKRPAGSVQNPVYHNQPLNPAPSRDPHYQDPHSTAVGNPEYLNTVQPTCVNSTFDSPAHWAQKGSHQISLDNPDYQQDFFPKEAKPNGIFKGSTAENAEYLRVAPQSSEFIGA
# Assays:
# [1] = molecular target: EGFR D19TMCS (del19/T790M/C797S) (Homo sapiens, UniProt P00533, C797S/DEL746-750/T790M); assay: Biochemical EGFR kinase assay (Lance Ultra TR-FRET), triple mutant del19/T790M/C797S; settings: read-out: IC50, EGFR D19TMCS, Km; ATP at Km; EGFR del19/T790M/C797S
# [2] = molecular target: EGFR LRTMCS (L858R/T790M/C797S) (Homo sapiens, UniProt P00533, C797S/L858R/T790M); assay: Biochemical EGFR kinase assay (Lance Ultra TR-FRET), triple mutant L858R/T790M/C797S; settings: EGFR L858R/T790M/C797S
# [3] = molecular target: EGFR D19CS (del19/C797S) (Homo sapiens, UniProt P00533, C797S/DEL746-750); assay: Biochemical EGFR kinase assay (Lance Ultra TR-FRET), double mutant del19/C797S; settings: EGFR del19/C797S
# [4] = molecular target: EGFR LRCS (L858R/C797S) (Homo sapiens, UniProt P00533, C797S/L858R); assay: Biochemical EGFR kinase assay (Lance Ultra TR-FRET), double mutant L858R/C797S; settings: EGFR L858R/C797S
# [5] = molecular target: EGFR WT (Homo sapiens, UniProt P00533); assay: Biochemical EGFR kinase assay (Lance Ultra TR-FRET), wildtype; settings: EGFR wildtype
structure (smiles),measurement,setting,value
Cc1nn(C)c2c1-c1nccc(n1)Nc1cc(c(-c3ncc(CN4C[C@H](CS(C)(=O)=O)[C@@H]4C)cc3F)cn1)N[C@@H](C)CCO2,IC50,[1],< 10 nM
same,IC50,"[2]; read-out: IC50, EGFR LRTMCS, 1 mM, ATP 1 mM",< 10 nM
same,IC50,"[2]; read-out: IC50, EGFR LRTMCS, Km, ATP at Km",< 10 nM
same,IC50,"[3]; read-out: IC50, EGFR-D19CS, 1 mM, ATP 1 mM",10 to 100 nM
same,IC50,"[3]; read-out: IC50, EGFR-D19CS, Km, ATP at Km",< 10 nM
same,IC50,"[4]; read-out: IC50, EGFR-LRCS, 1 mM, ATP 1 mM",10 to 100 nM
same,IC50,"[4]; read-out: IC50, EGFR-LRCS, Km, ATP at Km",< 10 nM
same,IC50,"[5]; read-out: IC50, EGFR WT, 1 mM, ATP 1 mM",> 1000 nM
same,IC50,"[5]; read-out: IC50, EGFR WT, Km, ATP at Km",10 to 100 nM

# Where two headings read alike, the source gives them in different places.
